Laboratory results published in ChEMBL document CHEMBL1122591, “(Imidazolylphenyl)formamidines. A structurally novel class of potent histamine H2 receptor antagonists” (J Med Chem, 1984).

Chains of the proteins cited; added tags and fusions are not shown.
UniProt P47747, whole entry: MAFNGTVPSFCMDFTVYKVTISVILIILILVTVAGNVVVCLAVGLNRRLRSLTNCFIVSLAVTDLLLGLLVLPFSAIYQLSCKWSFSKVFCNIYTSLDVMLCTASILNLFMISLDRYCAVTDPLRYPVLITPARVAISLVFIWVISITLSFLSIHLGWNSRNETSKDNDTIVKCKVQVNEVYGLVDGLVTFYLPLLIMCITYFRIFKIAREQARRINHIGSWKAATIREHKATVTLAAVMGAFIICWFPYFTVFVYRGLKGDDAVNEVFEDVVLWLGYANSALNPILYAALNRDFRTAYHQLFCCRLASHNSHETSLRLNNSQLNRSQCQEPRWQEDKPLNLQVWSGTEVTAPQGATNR

Biological target: Histamine H2 receptor (Cavia porcellus) (UniProt P47747)
Assay: Evaluated in vitro for histamine H2 receptor antagonist activity by using histamine-stimulated chronotropic response of the guinea pig atrium
Assay type: functional, tissue-based
Settings: Cardiac atrium

Structure (SMILES): CN/C(=N\CCSCc1nc[nH]c1C)NC#N [CIMETIDINE]
- Kb: 470 nM
